Structures are written as SMILES. The entries are a selection whose mix differs from that of the whole data set. Active and inactive are the calls of the source.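 The calls were made as follows: active = pattern-corrected inhibition above about 35%, with an unprinted fluorescence ratio check between 0.5 and 1.5 (limit read from the data, passing the limit was not always enough); inactive = the rest.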

By UniProt entry, the sequences of proteins in these tests, tags left out.
UniProt Q92905, whole entry: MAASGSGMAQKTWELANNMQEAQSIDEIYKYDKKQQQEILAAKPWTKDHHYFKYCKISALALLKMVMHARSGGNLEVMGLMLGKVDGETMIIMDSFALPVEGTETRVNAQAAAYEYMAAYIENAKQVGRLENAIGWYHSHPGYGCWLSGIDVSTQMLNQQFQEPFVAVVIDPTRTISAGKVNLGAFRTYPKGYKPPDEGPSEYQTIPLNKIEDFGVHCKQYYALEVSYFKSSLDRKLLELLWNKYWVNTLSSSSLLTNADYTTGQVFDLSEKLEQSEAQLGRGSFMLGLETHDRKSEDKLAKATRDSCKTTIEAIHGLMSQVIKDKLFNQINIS

For this assay, the target named is COP9 signalosome complex subunit 5 (Homo sapiens) (UniProt Q92905). Description: CSN5 deneddylase inhibitors on cullin-RING ligase – biochemical, fluorescence polarization, uHTS, primary screen (AID 651999).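 Also: 0% = enzyme with substrate and 100% = substrate without enzyme.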 The settings on record: Purified CSN, SCF-Nedd8-OG deneddylation, at 12.5 µM, hits give high values. A digest of the protocol:
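Assay system: Purified human Csn5 enzyme expressed in HEK293T cells | Amount: Enzyme 0.24 nM | Measured by: Fluorescence polarization readout | Medium: Tris/NaCl/DTT buffer, pH 7.5 | Compound dosing: One concentration, 12.5 µM, 0.25% DMSO | Times: 90 min incubation of compound, enzyme and substrate at room temperature | Control set: no-enzyme wells high, enzyme-with-substrate wells low | Read-out: % inhibition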
For orientation: Polarisation of emitted light reports the rotation of a fluorescent probe.
As a reminder, the inhibition is the percentage by which the read-out fell short of the control. Take `CCC(=O)N(c1ccccc1)C1(COC)CCN(CCn2nnn(CC)c2=O)CC1`: the inhibition was inactive: 2.25%.
The same measure for `CCC(=O)N(c1ccccc1)C1(COC)CCN(CCc2cccs2)CC1`: inactive: 0.57%.

The values are drawn from PubChem BioAssay AID651999 (Sanford-Burnham Center for Chemical Genomics, 2013).
